## scFv variants of Ab-95 (light chain) against a SARS-CoV-2 spike peptide

Source: Engelhart et al. 2022 (doi:10.1038/s41597-022-01779-4), MIT Lincoln Laboratory and A-Alpha Bio; data file from the FLAb repository.

The target is the same throughout: PDVDLGDISGINAS, from the HR2 region of SARS-CoV-2 spike.

Each scFv is VH, the linker GGGGSGGGGSGGGGS, VL, as in the parent Ab-95, and differs from it in the CDRs of the light chain only.
VH: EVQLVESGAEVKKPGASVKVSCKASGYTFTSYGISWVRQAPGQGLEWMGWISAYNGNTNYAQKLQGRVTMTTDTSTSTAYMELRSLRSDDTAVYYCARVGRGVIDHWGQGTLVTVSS
VL: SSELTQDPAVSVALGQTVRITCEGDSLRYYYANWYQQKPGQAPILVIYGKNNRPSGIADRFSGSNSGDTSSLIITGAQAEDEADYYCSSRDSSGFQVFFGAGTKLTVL

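The parent was found by panning a naive human phage display library on the peptide. The library (AAYL52) carries one to three amino acid substitutions per variant, with no insertions or deletions. Affinity was read by AlphaSeq, a pooled yeast mating assay with surface-displayed partners. Binding brings cells together so that they mate, and sequencing counts the barcode pairs among the diploids. Each replicate has its own calibration line, from reference interactions of the BCL2 family. Each pool was mated in three replicate cultures.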

The parent's light chain CDRs are EGDSLRYYYAN, GKNNRPS, SSRDSSGFQVF; each variant's own CDRs replace them letter for letter.
All variants listed here change L27 of the VL, counted from its first residue.
Affinities are written as log10 Kd with Kd in nM; a lower number is a better binder.
Replicates are averaged; those with no signal do not enter the mean.
"nd" means that the variant was in the library but no mating with the target was seen in any replicate; the authors take this as a sign of poor binding, and no number exists.
Three control strains display no target. For library AAYL52, 28% of the pairings with them gave a signal, with a median of 3.91 and one signal in twenty below 2.90, so weak values seen in few replicates may be background.

For EGDSFDYYYAN / GKNNRPS / SSRDSSGFLVF, the assay gave 4.35 (1 of 3 replicates). The variant EGDSARYYYAN / GKNNRPS / DARDSSGFQVF showed 2.04 (3 of 3 replicates). For EGDSHRYQYAN / GKENRPS / SSRDSSGFQVF, the assay gave 2.00 (3 of 3 replicates). The variant EGDSRRWYYAN / GKNNRPS / SSRDISGFQVF showed 3.76 (1 of 3 replicates). The variant EGDSWRYYYAE / GKNNRCS / SSRDSSGFQVF gave 4.42 (1 of 3 replicates). With EGDSARYYYAN / GKNNRPS / SSMDSSMFQVF the result was 4.10 (2 of 3 replicates). The variant EMDSNRYYYAN / GKNNRPS / SVRDSSGFQVF showed 1.93 (3 of 3 replicates). The variant EGDSCRYYYAN / GKNNRPS / SSRDSPWFQVF gave 4.51 (2 of 3 replicates).

With EGDSYRYYEAN / GKNNRPS / SSRDSSTFQVF the result was 3.44 (2 of 3 replicates). The variant EGDSQRYYYAN / GKNNRPS / SSRDSSGFQVF showed 2.67 (3 of 3 replicates). For EGDSSRYYYAN / GKNNRPS / SSRKSSGFSVF, the assay gave 4.05 (3 of 3 replicates). With EGDSKRYYYAN / GKMNRPR / SSRDSSGFQVF the result was 3.07 (1 of 3 replicates). With EGDSDRYYYAN / WKNNRPS / SSRDSSSFQVF the result was 3.97 (1 of 3 replicates). For EGDSIRYYYAN / GKNNRPS / SSRDSSGTQVF, the assay gave 2.50 (3 of 3 replicates). For HGDSPRYYYAN / GKNNRPS / SSRDKSGFQVF, the assay gave 2.58 (3 of 3 replicates). The variant EGDSVRYSYAN / GKNNRVS / SSRDSSGFQVF showed 1.78 (3 of 3 replicates).

The variant EGDSHRYYYAN / GKNNRPS / TSRDSSGFMVF showed nd (0 of 3 replicates). The variant EGDSERYYYAN / GKNNRNS / SSRDSSGFQVF gave 4.11 (1 of 3 replicates). The variant EGDSPRYCYAN / GKNNRPS / SSRDSSGFFVF gave nd (0 of 3 replicates). For EYDSFRYYYAN / GKNNRPS / SSRDSSGFQVF, the assay gave 3.81 (3 of 3 replicates). The variant YGDSNRYYYAN / GKNNRPS / SSRDSSGPQVF showed 3.24 (3 of 3 replicates). With TGDSHRYYYAN / GNNNRPS / SSRDSSGFQVF the result was 2.77 (3 of 3 replicates). For EQDSTRYYYAN / GKNNRPS / SSRDSSGWQVF, the assay gave nd (0 of 3 replicates). For EGDSSRQYYAN / GKENRPS / SSRDSSGFQVF, the assay gave 3.39 (3 of 3 replicates).

The variant EGDSQRYYYKN / GMNNRPS / SSRDSSGFQVF showed 2.47 (3 of 3 replicates). For EGDSGRVYYAN / GKNNRPA / SSRDSSGFQVF, the assay gave 4.40 (2 of 3 replicates). With EGDSCRYYYAN / GKNNRPS / TSRDSSGFQNF the result was 2.94 (3 of 3 replicates). The variant EGDSSCYYYAN / GKNNRPS / SSRDSSGRQVF gave 3.50 (3 of 3 replicates). With EGDSKRYYYAN / GKNNRYS / SSRDSSGFQVA the result was 2.45 (3 of 3 replicates). With EGDSGAYYYAN / GKNNRPS / SSWDSSGFQVF the result was 4.07 (2 of 3 replicates). With EGDSSRYYYAN / GKNTRPS / SSRSSSGFQVF the result was 3.85 (3 of 3 replicates). The variant EGDNERYYYAN / PKNNRPS / SSRDSSGFQVF gave 4.02 (2 of 3 replicates).

For EGDSTRYYGAN / GKNNRPS / SSRDCSGFQVF, the assay gave 2.35 (3 of 3 replicates).